Test results published in ChEMBL document CHEMBL2417375 (Bioorg Med Chem Lett, 2013).

Amino acid sequences for entries named in this document (tags omitted).
UniProt P42866, whole entry: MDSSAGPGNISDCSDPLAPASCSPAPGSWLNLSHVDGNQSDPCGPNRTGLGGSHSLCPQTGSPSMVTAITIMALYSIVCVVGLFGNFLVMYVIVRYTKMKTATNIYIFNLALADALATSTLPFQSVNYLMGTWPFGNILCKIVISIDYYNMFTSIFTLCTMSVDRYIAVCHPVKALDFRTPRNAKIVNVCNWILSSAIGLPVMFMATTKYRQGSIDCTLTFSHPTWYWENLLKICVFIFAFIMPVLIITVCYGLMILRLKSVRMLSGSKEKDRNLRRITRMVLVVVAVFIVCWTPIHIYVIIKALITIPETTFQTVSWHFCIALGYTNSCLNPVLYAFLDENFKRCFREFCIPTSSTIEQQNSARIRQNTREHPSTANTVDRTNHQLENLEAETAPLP

Key:
Mu-type opioid receptor [1] = target: T1, Mu-type opioid receptor (Mus musculus, UniProt P42866); assay: Displacement of [3H]-naloxone from mouse mu opioid receptor expressed in CHO cells after 1.5 hrs; format: cell-based
Mu-type opioid receptor [2] = target: T1, Mu-type opioid receptor; assay: Agonist activity at mouse mu opioid receptor expressed in CHO cells assessed as stimulation of [35S]-GTPgammaS binding after 1.5 hrs; format: functional, cell-based

| Structure (SMILES) | Ki (Mu-type opioid receptor [1]) [nM] | EC50 (Mu-type opioid receptor [2]) [nM] |
| --- | --- | --- |
| COc1c(C(=O)N[C@H]2CC[C@@]3(O)[C@H]4Cc5ccc(O)c6c5[C@@]3(CCN4CC3CC3)[C@H]2O6)nc(Cl)c2ccccc12 | 0.55 | – |
| O=C(N[C@H]1CC[C@@]2(O)[C@H]3Cc4ccc(O)c5c4[C@@]2(CCN3CC2CC2)[C@H]1O5)c1cc2ccccc2c(Cl)n1 | 1.26 | 2.62 |
